Values quoted from earlier work in PMC3491360 (ACS medicinal chemistry letters, 2012).

Protein sequences, listed by entry. Tags and fused reporters are not part of them.
UniProt P0DMS8, whole entry: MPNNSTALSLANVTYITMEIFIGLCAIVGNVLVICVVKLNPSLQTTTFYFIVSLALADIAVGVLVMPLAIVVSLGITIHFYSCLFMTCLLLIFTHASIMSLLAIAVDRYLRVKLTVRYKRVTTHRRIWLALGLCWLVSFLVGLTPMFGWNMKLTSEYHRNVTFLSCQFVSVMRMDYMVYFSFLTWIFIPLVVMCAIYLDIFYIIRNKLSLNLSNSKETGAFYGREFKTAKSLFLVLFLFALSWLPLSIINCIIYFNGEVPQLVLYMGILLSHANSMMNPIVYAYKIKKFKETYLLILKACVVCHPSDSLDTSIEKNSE

Target: hA3AR (Homo sapiens, UniProt P0DMS8)
Details: read-out: Affinity (Ki) hA3; CHO cell membranes; ref Melman et al.[19]; cited from earlier work

## OC1C(O)C(n2cnc3c(NCc4cccc(Cl)c4)nc(Cl)nc32)C2CC12 (stereo not shown) [Compound 2b]
  Ki: 1.06 nM
